Series [1] relates to O=C(O)c1ccccc1[N+](=O)[O-]. The experiment in a line: purified protein. As to conditions: pH 7.4, 37 °C, saturating cofactor, anaerobic, pH 7.4.
The subject of another series is CC(C)O. The experiment in a line: purified protein. As to conditions: NAD+ saturating, pH 8.8, 37 °C, pH 8.8.

The source of these data is PMC8616928, “Versatile selective evolutionary pressure using synthetic defect in universal metabolism” (Nature Communications, 2021).

One may read the Km as the concentration of substrate that gives half-maximal velocity. A word on the kcat: it is the number of substrate molecules converted per active site and unit of time at saturation. With “EntNfsB (Enterobacter cloacae; F124A/S40A/T41I)”, in series [1], the Km is 808 µM and the turnover number (kcat) was found to be 0.473 s⁻¹.
With “TBADH (Thermoanaerobacter brockii; G198S/R200P/S199K/Y218V)”, in the series with CC(C)O, the Km was found to be 3740 ± 540 µM and the kcat was 1.87 ± 0.095 s⁻¹.
